Assay [1] addresses Estrogen receptor (Homo sapiens) (UniProt P03372). The experiment in a line: Binding affinity to ERalpha (unknown origin) assessed as relative binding affinity incubated for 2 hrs by fluorescence polarization assay relative to control. In general terms: In fluorescence polarisation assays a small probe gives low polarisation when free and higher when bound to something large.

Sequences of proteins named here, by UniProt entry; tags and fusion partners are left off.
UniProt P03372, whole entry: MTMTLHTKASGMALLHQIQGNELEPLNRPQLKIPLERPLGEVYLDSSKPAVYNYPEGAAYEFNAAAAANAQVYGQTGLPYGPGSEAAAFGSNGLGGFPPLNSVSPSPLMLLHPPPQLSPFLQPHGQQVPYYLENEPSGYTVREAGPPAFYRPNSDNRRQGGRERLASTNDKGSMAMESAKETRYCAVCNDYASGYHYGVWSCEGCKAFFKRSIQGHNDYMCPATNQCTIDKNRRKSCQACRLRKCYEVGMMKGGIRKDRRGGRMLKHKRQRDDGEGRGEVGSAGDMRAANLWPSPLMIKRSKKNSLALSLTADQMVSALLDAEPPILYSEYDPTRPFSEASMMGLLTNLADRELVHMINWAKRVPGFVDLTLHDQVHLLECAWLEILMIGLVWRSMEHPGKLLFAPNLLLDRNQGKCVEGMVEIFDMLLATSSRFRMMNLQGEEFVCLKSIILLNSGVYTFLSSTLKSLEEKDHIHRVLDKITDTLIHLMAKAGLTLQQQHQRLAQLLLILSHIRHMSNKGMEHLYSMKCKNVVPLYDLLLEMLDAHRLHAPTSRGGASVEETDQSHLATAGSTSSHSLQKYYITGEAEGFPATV

Assay [2] in a line: Selectivity ratio of relative binding affinity for ERalpha (unknown origin) to relative binding affinity to ERbeta (unknown origin).

Take `CC/C(=C(/c1ccc(OCCN(C)C)cc1)c1ccc(OC(=O)N(C)CCN(C)C2CC2c2ccccc2)cc1)c1ccccc1` (configuration not stated): the RBA in assay [1] came out at 8.73%. Besides, the Ratio in assay [2] turned out to be 2.7.

Source of the values: ChEMBL document CHEMBL5335824, “Research progress of LSD1-based dual-target agents for cancer therapy” (Bioorg Med Chem, 2024).
